Legend:
[1] = target: T1, HCV ORFs (Gal4-DB fusions) (Hepatitis C virus genotype 1b, UniProt Q9WMX2); assay type: binding, HCV genotype 1b, isolate con1; settings: HCV protein NS3 as bait; human protein as prey
T1 construct: expressed in transfected cells; host or cells: Saccharomyces cerevisiae MAV203 (IMAP1) / AH109 (IMAP2)

[2] = tested on: HCV ORFs (Gal4-DB fusions); assay type: binding, HCV genotype 1b, isolate con1; settings: human protein listed by gene symbol; the value names the HCV protein it interacts with
HCV proteins = target: T2, HCV proteins (Hepatitis C virus genotype 1b, UniProt Q9WMX2); assay: Validation by Y2H pairwise matrices; assay type: binding; settings: validation of interaction with HCV protein NS3;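 also: yeast two-hybrid pairwise tests of interactions first found in Y2H screens of HCV bait proteins against human cDNA libraries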
T2 construct: expressed in transfected cells
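For IMAP Y2H IMAP1 (number of IST) in this document: yeast two-hybrid screens using HCV genotype 1b proteins fused to Gal4-DB as baits against prey cDNA libraries from human spleen and foetal brain, IMAP1 via transformation and IMAP2 via mating.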
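For IMAP Y2H IMAP2 (number of IST) in this document: yeast two-hybrid screens using HCV genotype 1b proteins fused to Gal4-DB as baits against prey cDNA libraries from human spleen and foetal brain, IMAP1 via transformation and IMAP2 via mating.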
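For Interaction with viral protein in this document: yeast two-hybrid screens using HCV genotype 1b proteins fused to Gal4-DB as baits against prey cDNA libraries from human spleen and foetal brain, IMAP1 via transformation and IMAP2 via mating.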

| Substance | IMAP Y2H IMAP2 (number of IST) [1] | Interaction with viral protein [2] | Y2H matrices (HCV proteins) | IMAP Y2H IMAP1 (number of IST) [1] |
| --- | --- | --- | --- | --- |
| B2M | 1 | NS3 |  |  |
| FTH1 |  | NS3 | + | 2 |

Reference: patent publication US20110091994A1, “Methods for Screening Compounds for Treating and/or Preventing an Hepatitis C Virus Infection” (priority 2008, published 2011)
